{"source": "paper PMC4848510", "about": "“Foldamer-mediated manipulation of a pre-amyloid toxin” (Nature Communications, 2016)", "molecular_target": "T1, IAPP (Homo sapiens, UniProt P10997)", "T1 construct": "IAPP is a 37-residue peptide co-packaged with insulin in pancreatic β-cells; purchased Genscript; Elim Biopharmaceuticals", "T1 sequence (P10997 34-70 limits assumed)": "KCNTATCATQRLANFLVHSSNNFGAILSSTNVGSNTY", "test": "LUV-catalysed IAPP fibre formation kinetic assay (ThT fluorescence)", "assay_type": "biochemical", "conditions": "10 μM IAPP, 630 μM LUVs DOPG:DOPC 1:1, 100 nm, at least triplicate, ±1 s.d.", "method": "Unless otherwise stated, LUVs used in this work were prepared from a 1:1 mixture of DOPG/DOPC. The lyophilized mixture was hydrated in 100 mM KCl, 50 mM sodium phosphate and pH 7.4 for 20 min. A 20mg ml^−1 solution of lipid in buffer was passed 21 times through a polycarbonate membrane (pore diameter=100 nm). The phospholipid content of the final material was measured using a total phosphorous assay.\nAmyloid reactions were conducted in buffer containing liposome (630 μM lipid) and 20 μM ThT in a black 96-well plate. This was followed by the addition of small molecule dissolved in dimethylsulphoxide (DMSO; final DMSO concentration=0.5%, v/v). Fibre formation was initiated by the addition of IAPP stock solution. The final volume in each well was 200 μl. Kinetics of fibrillation was monitored by ThT fluorescence (excitation 450 nm and emission 485 nm), using a FluoDia T70 fluorescence plate reader (Photon Technology International, Edison, NJ, USA). The data were blank subtracted and renormalized to the maximum intensity of reactions containing only IAPP. Each kinetic trace was fit to a sigmoidal form:\nwhere I is the fluorescence intensity, t is time, and b, m and τ are dependent fitting variables. All samples were run at least in triplicate and error bars shown in the text represent ±1 s.d."}
{"smiles": "CC[C@H](C)[C@H](NC(=O)[C@H](C)NC(=O)CNC(=O)[C@H](Cc1ccccc1)NC(=O)[C@H](CC(N)=O)NC(=O)[C@H](CC(N)=O)NC(=O)[C@H](CO)NC(=O)[C@H](CO)NC(=O)[C@H](Cc1c[nH]cn1)NC(=O)[C@@H](NC(=O)[C@H](CC(C)C)NC(=O)[C@H](Cc1ccccc1)NC(=O)[C@H](CC(N)=O)NC(=O)[C@H](C)NC(=O)[C@H](CC(C)C)NC(=O)[C@H](CCCNC(=N)N)NC(=O)[C@H](CCC(N)=O)NC(=O)[C@@H](NC(=O)[C@H](C)NC(=O)[C@@H]1CSSC[C@H](NC(=O)[C@@H](N)CCCCN)C(=O)N[C@@H](CC(N)=O)C(=O)N[C@@H]([C@@H](C)O)C(=O)N[C@@H](C)C(=O)N[C@@H]([C@@H](C)O)C(=O)N1)[C@@H](C)O)C(C)C)C(=O)N[C@@H](CC(C)C)C(=O)N[C@@H](CO)C(=O)N[C@@H](CO)C(=O)N[C@H](C(=O)N[C@@H](CC(N)=O)C(=O)N[C@H](C(=O)NCC(=O)N[C@@H](CO)C(=O)N[C@@H](CC(N)=O)C(=O)N[C@H](C(=O)N[C@@H](Cc1ccc(O)cc1)C(N)=O)[C@@H](C)O)C(C)C)[C@@H](C)O", "note": "[IAPP]", "values": [{"measurement": "reaction midpoint t50 of IAPP fibre formation with LUVs", "result": "1.1 ± 0.1", "unit": "h"}]}
